Results as given in US20260382730A1, “SOS1 PROTEIN DEGRADATION AGENT AND USE THEREOF” (published 2026).
pIC50: −log10 of the molar value.

By UniProt entry, the sequences of proteins in these tests, tags left out. Where a name states a change or a piece, a line headed by the entry shows the natural chain unless it says otherwise.
UniProt Q07889, whole entry: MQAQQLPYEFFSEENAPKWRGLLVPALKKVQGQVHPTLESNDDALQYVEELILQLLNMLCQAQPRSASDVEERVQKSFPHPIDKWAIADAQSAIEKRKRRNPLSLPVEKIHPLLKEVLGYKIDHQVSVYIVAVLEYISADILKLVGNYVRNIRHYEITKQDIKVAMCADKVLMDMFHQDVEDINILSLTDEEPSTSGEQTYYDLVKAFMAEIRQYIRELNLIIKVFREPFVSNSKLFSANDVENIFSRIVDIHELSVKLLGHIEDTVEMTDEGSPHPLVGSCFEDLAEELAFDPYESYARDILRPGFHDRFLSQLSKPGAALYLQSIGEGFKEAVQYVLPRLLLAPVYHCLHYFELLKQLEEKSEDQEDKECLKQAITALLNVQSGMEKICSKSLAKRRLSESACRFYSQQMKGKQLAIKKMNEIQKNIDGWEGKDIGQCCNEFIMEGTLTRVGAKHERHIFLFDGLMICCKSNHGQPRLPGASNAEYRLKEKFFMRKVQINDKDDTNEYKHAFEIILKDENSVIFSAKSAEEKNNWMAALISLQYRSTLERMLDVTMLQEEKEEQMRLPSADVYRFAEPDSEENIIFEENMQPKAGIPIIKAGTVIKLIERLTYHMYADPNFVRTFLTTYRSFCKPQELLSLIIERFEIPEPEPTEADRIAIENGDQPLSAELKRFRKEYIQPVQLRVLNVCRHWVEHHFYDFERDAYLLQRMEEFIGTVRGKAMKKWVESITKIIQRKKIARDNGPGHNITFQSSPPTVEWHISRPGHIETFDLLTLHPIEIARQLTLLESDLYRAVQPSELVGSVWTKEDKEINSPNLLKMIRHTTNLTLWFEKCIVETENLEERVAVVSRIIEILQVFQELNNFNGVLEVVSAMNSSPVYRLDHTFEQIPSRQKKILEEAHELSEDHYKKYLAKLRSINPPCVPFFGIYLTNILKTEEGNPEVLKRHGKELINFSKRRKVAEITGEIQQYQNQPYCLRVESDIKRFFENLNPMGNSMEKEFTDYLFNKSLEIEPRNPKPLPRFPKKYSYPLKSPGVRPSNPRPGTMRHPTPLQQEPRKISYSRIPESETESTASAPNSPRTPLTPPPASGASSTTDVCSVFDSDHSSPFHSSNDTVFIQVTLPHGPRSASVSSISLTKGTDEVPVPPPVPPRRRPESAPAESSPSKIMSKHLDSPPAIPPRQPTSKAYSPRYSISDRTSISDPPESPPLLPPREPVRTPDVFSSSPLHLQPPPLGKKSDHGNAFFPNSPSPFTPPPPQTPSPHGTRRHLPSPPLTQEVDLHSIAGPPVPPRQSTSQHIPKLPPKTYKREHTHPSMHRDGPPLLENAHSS

What was measured:
KRAS-G12C/SOS1 = KRAS-G12C/SOS1 (Homo sapiens, UniProt Q07889); assay: KRAS-G12C/SOS1 binding assay (HTRF, competitive inhibition); conditions: read-out: KRAS G12C:SOS1 IC50, 10 μM GTP, 0.5% DMSO, 3 h under ice
Description: Test Example 1: KRAS-G12C/SOS1 Binding Assay
The following method was used to determine the extent of inhibition of a KRAS-G12C/SOS1 binding by the preferred compound of the present invention under in vitro conditions. This method uses the KRAS-G12C/SOS1 Binding Assay Kit (Cisbio, 63ADK000CB16PEG) to determine the competitive inhibition of the KRAS-G12C/SOS1 binding by a homogeneous time-resolved fluorescence technique (HTRF) for the preferred compound.
The experimental procedure was as follows (refer to the package insert of the kit for a detailed method): first the compound in the present invention was dissolved in DMSO at a concentration of 20 mM, and diluted with a buffer in the kit by isogradient dilution so that the final concentration of the test compound in the reaction system ranged from 10000 nM to 0.04 nM, and the final concentration of DMSO was 0.5%. 2 μL of the compound was incubated with 4 μL 1×Tag1-SOS1, 4 μL 1×Tag2-KRAS-G12C (containing 10 μM guanosine triphosphate, GTP) for 15 min at 25 °C, then 5 μL 1×Anti-Tag1-Tb3+ and 5 μL 1×Anti-Tag2-XL665 were added into the reaction system for incubation for 3 h under ice. After the incubation, the fluorescence intensity of each well at an excitation wavelength of 337 nm was measured in an HTRF mode on a microplate reader EnVision (PerkinElmer, 2105) and the fluorescence intensity of each well at emission wavelengths of 620 nm and 665 nm was read. The Raio value was calculated using a Formula Ratio=(665 nm/620 nm)×104. The inhibition rate of the compound at each concentration was calculated by comparing with the fluorescence intensity ratio of the control group, and then the IC50 value of the compound was obtained by nonlinear curve fitting with logarithmic concentration-inhibition rate using GraphPad Prism 8, as shown in Table 1.

SOS1 protein = SOS1 protein (Homo sapiens, UniProt Q07889); assay: SOS1 degradation test (Western blot) in NCI-H358 cells; conditions: maximum SOS1 degradation, NCI-H358 (KRAS G12C) cells, 24 h, 37 °C
Description: Test Example 2: SOS1 Degradation Test
The degradation of SOS1 by the compound was investigated on KRAS G12C mutant human non-small cell lung cancer cells NCI-H358 (ATCC or Chinese Academy of Sciences stem cell bank), KRAS G12D mutant human lung cancer cells A-427, KRAS G12V mutant human colorectal adenocarcinoma cells SW-620 and KRAS G13D mutant human colorectal adenocarcinoma epithelial cells DLD-1 (ATCC). Specific methods were as follows:
0.95 mL of cells was paved in each well of the 24-well cell culture plate to make the cell density reach 5×10^5 cells/well; the cell plates were placed in a 5% CO2 incubator and culture at 37 °C overnight. Then 50 μL of a diluted compound solution was added to the corresponding wells paved with cells, so that the final concentration of the compound was in the range of 0.03-3000 nM. The final concentration of DMSO is 0.25%. The administered cell plates were cultured in a 5% CO2 incubator at 37 °C for 24 h. After being removed from the 24 wells, the cell culture solution was washed twice with 1×PBS. 180 μL of an RIPA (strong) lysing buffer (Beyotime, P0013B) was added to NCI-H358 cells attached to the bottom of the cell culture plate and supplemented with 1 mM benzyl sulfonyl fluoride, a protease inhibitor mixture (Beyotime, P1008) and a protease phosphatase inhibitor mixture (Beyont, P1045) for lysis. After standing on ice for 30 min, the protein lysis buffer in each well was transferred to a 1.5 mL centrifuge tube and centrifuged at 15000 g and 4 °C for 20 min. The centrifuged cell lysate supernatant was cryopreserved at −80 °C for testing and used to test the degradation level of the SOS1 protein by a WB method. The total protein concentration in the cell lysis supernatant was determined using a BCA Protein Assay Kit (Tiangen, PA115-02).
The concentration of total protein in the cell lysate was determined by BCA, adjusted to 0.5 μg/μL with PBS and 5×SDS-PAGE protein loading buffer (Beyotime, P0015L), placed in a 100 °C water bath for 15 min, then placed in an ice bath on ice for 5 min, centrifuged at 14000 g and 4 °C for 1 min, mixed well as a loading sample of WB. Protein electrophoresis was performed with a precast gel (Kaigene, KGMG010W15), with a loading volume of 10 μL (total protein 5 μg). Constant voltage electrophoresis was carried out at 120 V for 55 min after Tris-MOPS-SDS electrophoresis solution (Adamas, P1598253). After electrophoresis, the protein on the gel strip was transferred to PVDF membrane at constant current 250 mA for 65 min. After transmembrane transfer, the membrane was incubated at room temperature for 30 min in 1×QuickBlock blocking buffer (Beyotime, P0235). After blocking, the PVDF membranes were incubated with an SOS1 primary antibody (Abcam, ab140621) overnight at 4 °C and washed with TBST buffer (2.4 g Tris, 8.8 g NaCl, 1.5 mL Tween 20, adjusted to pH 7.4, diluted to 1 L) for 30 min (10 min/time). The secondary antibody (Abcam, ab205718) was incubated at room temperature for 2 h, the membrane was washed with TBST buffer for 30 min (10 min/time), and finally incubated with Clarity Western ECL Substrate (BIO-RAD, 170-5061) for 5 min to develop luminescence. Chromogenesis and protein mapping were performed by chemiluminescence imaging system (Qixiang, ChemiScope 6200 Touch). The protein chromatogram was analyzed for gray value by Qinxiang chemiluminescence analysis software. The following formula is used: gray level correction value=(target protein gray level value/corresponding internal reference gray level value)×103 to calculate the gray level correction value of each sample. Then the degradation rate was calculated by comparing with the gray level correction value of the control group. Further, the DC50 and Dmax values of the compound were obtained by non-linear curve fitting with logarithmic concentration versus inhibition ratio through GraphPad Prism 8.

SMILES	pIC50 (KRAS-G12C/SOS1)	NCI-H358 (G12C) Dmax (SOS1 protein)
Cc1c(C#N)cccc1[C@@H](C)Nc1nnc(C)c2cnc(N3CCN(C(=O)C4CCN(CCCCC5CCN(C(=O)c6ccc(Cl)c(N7CCC(=O)NC7=O)c6)CC5)CC4)CC3)cc12	7.52 to 7.82	A (80≤Dmax(%)≤100)
Cc1ccc(C(=O)N2CCC3(CCC(CN4CCN(C(=O)[C@H]5CC[C@H](c6cc7c(N[C@H](C)c8cccc9c8CCS9(=O)=O)nnc(C)c7cn6)CC5)CC4)CC3)CC2)cc1N1CCC(=O)NC1=O	> 7.82	B (50≤Dmax(%)<80)
Cc1c(C#N)cccc1[C@@H](C)Nc1nnc(C)c2cnc([C@H]3CC[C@@H](C(=O)N4CCC(CCOCC5CCN(C(=O)c6ccc(Cl)c(N7CCC(=O)NC7=O)c6)CC5)CC4)CC3)cc12	6.00 to 7.00	D (Dmax(%)<30)
Cc1c(C#N)cccc1[C@@H](C)Nc1nnc(C)c2cnc(C3=CCC(C(=O)N4CCC(CCOCC5CCN(C(=O)c6ccc(Cl)c(N7CCC(=O)NC7=O)c6)CC5)CC4)CC3)cc12 (stereo partly shown)	6.00 to 7.00	D (Dmax(%)<30)
Cc1ccc(C(=O)N2CCC3(CCC(CN4CCC(C(=O)N5CCN(c6cc7c(N[C@H](C)c8cccc(C(F)F)c8C)nnc(C)c7cn6)CC5)CC4)CC3)CC2)cc1N1CCC(=O)NC1=O	7.52 to 7.82	A (80≤Dmax(%)≤100)
Cc1c(C#N)cccc1[C@@H](C)Nc1nnc(C)c2cnc(N3CCN(C(=O)C4CCN(CC5CCC6(CC5)CCN(C(=O)c5ccc7c(c5)C(=O)N(C5CCC(=O)NC5=O)C7=O)CC6)CC4)CC3)cc12 (stereo partly shown)	> 7.82	B (50≤Dmax(%)<80)
COc1ccc(C(=O)N2CCC3(CCC(CN4CCC(C(=O)N5CCN(c6cc7c(N[C@H](C)c8cccc(C#N)c8C)nnc(C)c7cn6)CC5)CC4)CC3)CC2)cc1N1CCC(=O)NC1=O	6.00 to 7.00	A (80≤Dmax(%)≤100)
COc1ccc(C(=O)N2CCC3(CCC(CN4CCN(C(=O)[C@H]5CC[C@H](c6cc7c(N[C@H](C)c8cccc(C#N)c8C)nnc(C)c7cn6)CC5)CC4)CC3)CC2)cc1N1CCC(=O)NC1=O	7.00 to 7.30	D (Dmax(%)<30)
